# Data from ChEMBL document CHEMBL5375969, “A Novel Bifunctional μOR Agonist and σ1R Antagonist with Potent Analgesic Responses and Reduced Adverse Effects” (2023).
# Legend:
# Mus musculus [1] = experiment: Analgesic activity against sc dosed CFA-induced chronic pain ICR mouse model assessed as increase in mechanical paw withdrawal threshold measured for 180 mins; conditions: 3 h
# Mus musculus [2] = experiment: Analgesic activity in sc dosed ICR mouse assessed as increase in latency time for licking and shaking the hind paw measured for 180 mins by hot plate assay; conditions: 3 h
# Mus musculus [3] = experiment: Analgesic activity in sc dosed 1% glacial acetic acid-induced visceral pain ICR mouse model assessed as decrease in writhing response administered 20 mins prior to acetic acid injection and measured after 5 to 20 mins; conditions: time 25-40 min
# [4] = Toxicity in sc dosed ICR mouse assessed as autonomous activity at 1.5X analgesic ED50 measured after 20 mins; conditions: in vivo
# [5] = Toxicity in sc dosed ICR mouse assessed as respiratory depression at 1.5X analgesic ED50 dose measured after 40 mins by whole body plethysmography; conditions: in vivo
# [6] = Toxicity in sc dosed ICR mouse assessed as rewarding effect by measuring increase in time difference after CPP conditioning at 1.5X analgesic ED50 dose measured for 30 mins by CPP test; conditions: in vivo, 0.5 h
compound,measurement,setting,value
CCN1CC2(CCN(CCc3cc(F)ccc3F)CC2)O[C@H](C)C1=O,ED50,Mus musculus [1],3.6 µmol/kg
same,ED50,Mus musculus [2],3.1 µmol/kg
same,ED50,Mus musculus [3],1.3 µmol/kg
same,Activity,[4],Non-Toxic
same,Activity,[5],Non-Toxic
same,Activity,[6],Non-Toxic
